Measured values from BindingDB's records for doi:10.1016/j.bmcl.2009.09.123 (Genomics Institute of The Novartis Research Foundation, 2009).

Assay: Inhibition of Tel-fused LCK expressed in mouse BAF3 cells

## Cc1ccc(NC(=O)c2ccncc2C(C)(C)C)cc1Nc1nc2ccccc2n1-c1cc(N)ncn1 [N-(3-(1-(6-aminopyrimidin-4-yl)-1H-benzo[d]imidazol-2-ylamino)-4-methylphenyl)-3-tert-butylisonicotinamide]
  IC50: 7 nM
